ChEMBL document CHEMBL1772943, “Potent, selective, and orally available benzoisothiazolone phosphomannose isomerase inhibitors as probes for congenital disorder of glycosylation Ia” (J Med Chem, 2011)

Species: Homo sapiens
Assay: Selectivity ratio of IC50 for human purified PMM2 to IC50 for human purified phosphomannose isomerase

Question: For `Cc1ccc(C)c(-n2sc3cc(F)ccc3c2=O)c1`, which Ratio IC50 is on record?
Answer: 7
